Test results: patent US10208089B2, “Modulation of complement activity” (priority 2014, dated 2019)

Amino acid sequences for entries named in this document (tags omitted). Residues count along the entry.
UniProt P01031, 19-1676: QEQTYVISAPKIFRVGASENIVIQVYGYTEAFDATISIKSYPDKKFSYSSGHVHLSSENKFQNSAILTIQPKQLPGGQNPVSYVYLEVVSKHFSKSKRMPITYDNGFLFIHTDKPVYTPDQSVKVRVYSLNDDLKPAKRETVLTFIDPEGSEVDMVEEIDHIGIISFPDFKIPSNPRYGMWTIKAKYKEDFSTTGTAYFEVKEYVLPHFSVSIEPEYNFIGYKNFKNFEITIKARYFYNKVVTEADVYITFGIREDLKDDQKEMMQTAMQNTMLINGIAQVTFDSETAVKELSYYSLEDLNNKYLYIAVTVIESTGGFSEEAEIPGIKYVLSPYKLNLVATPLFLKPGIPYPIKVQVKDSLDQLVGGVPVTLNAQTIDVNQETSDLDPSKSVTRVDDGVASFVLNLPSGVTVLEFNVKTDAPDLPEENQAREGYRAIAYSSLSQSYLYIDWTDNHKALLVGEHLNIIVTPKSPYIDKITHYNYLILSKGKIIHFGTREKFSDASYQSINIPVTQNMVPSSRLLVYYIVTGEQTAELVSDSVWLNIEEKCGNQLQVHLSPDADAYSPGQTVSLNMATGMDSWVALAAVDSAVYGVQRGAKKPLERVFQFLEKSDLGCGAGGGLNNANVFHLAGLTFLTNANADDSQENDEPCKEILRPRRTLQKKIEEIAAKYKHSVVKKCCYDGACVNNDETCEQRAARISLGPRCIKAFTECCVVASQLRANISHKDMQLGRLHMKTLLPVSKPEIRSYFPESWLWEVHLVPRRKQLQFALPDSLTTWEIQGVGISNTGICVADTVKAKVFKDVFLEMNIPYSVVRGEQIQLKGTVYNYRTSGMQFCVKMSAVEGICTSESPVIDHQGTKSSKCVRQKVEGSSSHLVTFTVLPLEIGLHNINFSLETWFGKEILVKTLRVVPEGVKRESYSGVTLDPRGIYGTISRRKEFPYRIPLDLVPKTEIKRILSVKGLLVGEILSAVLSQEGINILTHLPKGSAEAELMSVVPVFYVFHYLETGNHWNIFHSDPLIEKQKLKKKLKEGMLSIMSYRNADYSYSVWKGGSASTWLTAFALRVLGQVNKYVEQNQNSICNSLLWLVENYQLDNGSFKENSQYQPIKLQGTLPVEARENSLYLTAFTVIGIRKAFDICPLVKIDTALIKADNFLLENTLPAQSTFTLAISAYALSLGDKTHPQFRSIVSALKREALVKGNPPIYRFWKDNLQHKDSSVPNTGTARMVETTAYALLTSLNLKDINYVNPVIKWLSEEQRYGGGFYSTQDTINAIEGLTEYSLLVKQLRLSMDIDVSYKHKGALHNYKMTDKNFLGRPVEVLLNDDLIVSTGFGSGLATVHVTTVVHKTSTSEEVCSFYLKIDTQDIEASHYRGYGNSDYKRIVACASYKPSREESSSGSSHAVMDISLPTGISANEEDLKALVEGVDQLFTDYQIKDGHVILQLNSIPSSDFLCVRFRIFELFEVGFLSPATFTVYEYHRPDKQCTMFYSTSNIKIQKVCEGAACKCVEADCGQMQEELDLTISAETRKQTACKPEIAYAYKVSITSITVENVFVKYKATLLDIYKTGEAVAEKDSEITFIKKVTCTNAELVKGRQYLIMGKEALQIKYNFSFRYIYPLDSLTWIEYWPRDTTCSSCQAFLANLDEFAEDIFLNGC

Columns and labels:
C5a = C5a EIA on supernatant from human RBC hemolysis assay; format: biochemical; details: hemolysis assay supernatant diluted 1:50; read-out: IC50, inhibition of formation of C5a
Protocol: Levels of C5a correlate with complement activity and are therefore an indicator of the ability of the compounds tested to inhibit complement activity. Supernatant from the hemolysis assay was diluted 1:50 and assayed for C5a levels. […] As used herein, the term “IC50” refers to the half maximal inhibitory concentration, a value used to indicate the amount of the inhibitor needed to reduce a given reaction or process by half.
Inhibition of the production of C5a and the membrane attack complex (MAC) were measured by MicroVue EIA kits (Quidel Corporation, San Diego, Calif.).

C5 = C5 (Homo sapiens, UniProt P01031); assay: Human hemolysis assay (RBC lysis assay using complete human sera); format: cell-based; set-up: with complete human sera (Complement Technology, Tyler Tex.) and polypeptides; tissue Complement Technology, Tyler Tex; host or cells: complete human serum
[1] = Pharmacokinetic studies in rat (IV and SC); details: male Sprague-Dawley rats, R3183 versus unlipidated R3176
Protocol: Left: Male Sprague-Dawley rats (n=3) were injected intravenously at a single 2 mg/kg dose. Blood samples were collected at indicated time points, processed into plasma, and analyzed for the indicated compound by LC-MS. […] […] Blood samples were collected at indicated time points, processed into plasma, and analyzed for the indicated compound by LC-MS.
Blood samples were collected at indicated time points, processed into plasma, and analyzed for the indicated compound by LC-MS. […] Blood samples were collected at indicated time points, processed into plasma, and analyzed for the indicated compound by LC-MS.

**Q.** Which IC50 (C5a) does the source give for `CCC[C@H](NC(=O)[C@@H](NC(=O)[C@@H]1CCCN1C(=O)[C@H](Cc1ccc(O)cc1)NC(=O)[C@H](CCC(=O)O)NC(=O)[C@H](Cc1c[nH]c2ncccc12)NC(=O)[C@H](Cc1ccc(O)cc1)NC(=O)[C@@H](NC(=O)[C@H](CC(N)=O)NC(=O)[C@H](CCC(=O)O)NC(=O)[C@H](Cc1ccc(O)cc1)NC(=O)[C@H](CS)NC(=O)[C@H](CCC)NC(C)=O)C(C)(C)C)c1ccccc1)C(N)=O` [Compound R3002, Ac-Nvl-C-Y-E-N-Tbg-Y-azaTrp-E-Y-P-Phg-Nvl-NH2] here?
**A.** 5.4 nM

**Q.** With `CC(=O)N[C@H]1CSCc2cccc(c2)CSC[C@@H](C(=O)N[C@@H](CC(=O)O)C(=O)N[C@H](C(=O)N[C@@H](Cc2ccc(O)cc2)C(=O)N[C@@H](Cc2c[nH]c3ncccc23)C(=O)N[C@@H](CCC(=O)O)C(=O)N[C@@H](Cc2ccc(O)cc2)C(=O)N2CCC[C@H]2C(N)=O)C(C)C)NC(=O)[C@H](Cc2ccccc2)NC(=O)[C@H](CCCNC(=N)N)NC(=O)[C@H](CCC(=O)O)NC(=O)[C@H](C(C)C)NC1=O` [Compound R3142, [mXylyl(1,6)]Ac-C-V-E-R-F-C-D-V-Y-azaTtp-E-Y-P-NH2] as the compound, how does the IC50 (C5) read?
**A.** 44.6 nM

**Q.** Which results are given for `CCCCCCCCCCCCCCCC(=O)NCCCC[C@H](NC(=O)[C@@H](NC(=O)[C@@H]1CCCN1C(=O)[C@H](Cc1ccc(O)cc1)NC(=O)[C@H](CCC(=O)O)NC(=O)[C@H](Cc1c[nH]c2ncccc12)NC(=O)[C@H](Cc1ccc(O)cc1)NC(=O)[C@@H](NC(=O)[C@H](CC(=O)O)N(C)C(=O)[C@@H]1CC(=O)NCCCC[C@H](NC(C)=O)C(=O)N[C@@H](C(C)C)C(=O)N[C@@H](CCC(=O)O)C(=O)N[C@@H](CCCNC(=N)N)C(=O)N[C@@H](Cc2ccccc2)C(=O)N1)C(C)(C)C)C1CCCCC1)C(=O)O` [Compound R3183, [cyclo(1,6)]Ac-K-V-E-R-F-D-(N-Me)D-Tbg-Y-azaTrp-E-Y-P-Chg-(Lys-C16)]?
**A.** increase in exposure (AUC) by lipidation ([1]; intravenous 2 mg/kg): 2.1 fold; increase in exposure (AUC) by lipidation ([1]; subcutaneous 15 mg/kg): 2.7 fold
